Laboratory results as given in patent US20060188895A1, “Rapid prognostic assay for malignancies treated with epidermal growth factor receptor” (The Johns Hopkins University, priority 2004, published 2006).

Tested on: A431 cells (c-fos mRNA)
Assay: in vitro c-fos mRNA expression by quantitative RT-PCR
Assay type: cell-based, human

COc1cc2ncnc(Nc3ccc(F)c(Cl)c3)c2cc1OCCCN1CCOCC1 [gefitinib]
effect on EGF-induced c-fos increment (10 μM, 1-hour exposure, with EGF): abrogated
c-fos, time and dose-dependency experiment (0.1 and 1 μM, 24, 48 and 120 hours): decreased c-fos effectively
c-fos after longer exposure (24-hour exposure): lasting c-fos downregulation
effect of drug alone on c-fos levels (without EGF, 1 hour): decreased c-fos levels
